A549 viability – counter-screen for Nrf2 inhibitors: cytotoxicity in A549 cells; A549 ARE-Fluc cells, CellTiter-Fluor viability, 18-24 h; Potency, µM (highest dose often 46 µM), hits mostly inhibitors; 390,000 tested, 0.16% active
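A549 ARE-Fluc cells in 5% FBS OPTI-MEM, 5000 cells/well, rested 2 h then exposed to compounds in concentration-response for 18-24 h at 37 °C. Viability by CellTiter-Fluor fluorescence (Ex 405/Em 525) after 30 min; luciferase luminescence (BugLite, 15 min, RT) read afterwards.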
Nrf2 activator – Nrf2 pathway activation. Potency, µM (series often up to 46.1 µM), most hits filed as activators. AREc32 ARE-luciferase reporter (MCF7-derived line), luminescence, 24 h. 410,000 tested, 0.31% active. AID 624171; also: nearly all actives have a fitted effect of over 65% in size
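Steps: seed AREc32_Fluc cells (1000/well, 5% FBS OPTI-MEM); incubate overnight at 37 deg C; add 23 nL compound; incubate 24 hr; add Steady-Glo; hold 30 min RT; read luminescence.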
miR-21 reporter – raises the signal of a miR-21 reporter; AID 2288; 340,000 tested, under 10 active; Potency, µM (doses to about 38.3 µM); HeLa miR-21 FLuc reporter, luciferase, 48 h; active = well fitted rising curve with a large enough effect; inconclusive = small, poorly fitted or top-dose-only effect; inactive = no such curve, though single readings can be large or run the other way;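 note: miR-21 action dims this reporter so a rising signal means less miR-21 action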
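HeLa cells stably expressing CMV-driven firefly luciferase with a downstream miR-21 binding sequence, endogenously expressing miR-21, were treated with titrations (up to about 40uM final) for 48 hours at 37 degree Celsius. Luciferase luminescence was read after lysis.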
p53 reactivation – re-activators of mutant p53; H1299 p53-A138V BP100-luciferase reporter, luminescence, 24 h; Potency, µM (highest dose often 92.2 µM), most hits filed as activators; 320,000 tested, 0.063% active; AID 504706; also: nearly all actives have a fitted effect of over 45% in size
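p53-null H1299 cells stably carrying temperature-sensitive p53-A138V and a BP100-luciferase reporter were pinned with compounds (4-point, 1:5 series) and held 24 hrs at 37 deg C. Luminescence was read 10 min after detection reagent.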
Nrf2 block – blocks Nrf2 signaling. A549 ARE-Fluc reporter, luciferase luminescence, 18-24 h. Potency, µM (top dose mostly 46 µM), actives largely listed as inhibitors. 360,000 tested, 2.1% active; also: nearly all actives have a fitted effect of over 60% in size
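Two sequential reads on A549 ARE_Fluc cells exposed to compound for 18-24 h: a CellTiter-Fluor fluorescence read for viability, then a luciferase luminescence read for Nrf2/ARE activity.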
ClpP mod – qHTS Assay for Activators of ClpP. Potency, µM (series often up to 57.5 µM). ATP-dependent Clp protease proteolytic subunit (Bacillus subtilis (strain 168)), P80244. 340,000 tested, 1.9% active. purified B. subtilis ClpP, FRET peptide cleavage, 20 min; active = well fitted falling curve with a large enough effect; inconclusive = small, poorly fitted or top-dose-only effect; inactive = no such curve, though single readings can be large or run the other way; also: the source files actives as falling curves though it sought activators and does not explain the sign; nearly all actives have a fitted effect of over 65% in size
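ClpP 10 microg/mL final, pH 8 Tris/KCl buffer with BSA, glycerol, Tween-20; compound pinned in; FRET-FV substrate; RT 20 min; Ex320/Em430; ΔFRET vs ADEP 5.8 microM, DMSO, no enzyme.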
Hits are given with their value; i = inactive; ? = inconclusive; nt = no result; [ ] = remark or other dose. This is a sample that favours compounds with a hit; in the whole collection about 3.7% have one here. Unless noted, calls follow the shape of the dose curve; as a rule, active = well fitted curve in the direction sought with a large enough effect; inconclusive = small, poorly fitted or top-dose-only effect, or another doubt; inactive = no such curve, though single readings can be large; an effect the other way counts as inactive or inconclusive.

Sequences of proteins named here, by UniProt entry; tags and fusion partners are left off.
ATP-dependent Clp protease proteolytic subunit (Bacillus subtilis (strain 168)), P80244, UniProt P80244, whole entry, looked up: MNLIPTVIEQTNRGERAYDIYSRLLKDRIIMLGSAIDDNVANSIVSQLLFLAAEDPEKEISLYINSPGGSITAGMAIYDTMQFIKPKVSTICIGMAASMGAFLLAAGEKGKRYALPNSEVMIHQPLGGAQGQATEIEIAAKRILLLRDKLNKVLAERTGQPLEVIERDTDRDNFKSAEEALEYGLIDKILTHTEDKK

SMILES	A549 viability	Nrf2 activator	miR-21 reporter	p53 reactivation	Nrf2 block	ClpP mod
COc1ccc(Cl)cc1N(C)c1nc(N2CCN(S(=O)(=O)c3ccc(C)cc3)CC2)c2ccccc2n1	nt	nt	nt	nt	nt	i
Cc1ccc(CCNc2nc3c(S(=O)(=O)c4ccc(C)cc4)nnn3c3ccsc23)cc1	i	i	i	nt	?	i
Cc1ccc2cc3cc(C(=O)N(C)c4ccccc4C)oc3nc2c1	i	i	i	nt	?	i
Oc1ccc(Oc2ccccc2F)c2cccnc12	i	nt	nt	nt	i	nt
Cc1ccccc1OCC(=O)Nc1ccc(N2CCN(C(=O)c3ccco3)CC2)cc1	i	i	i	i	15µM	i
Cc1ccccc1C(=O)NCC(=O)OCC(=O)NC(C)C1CC2CCC1C2 (stereo not given)	i	i	nt	i	i	i
Cc1ccc(C(=O)NCC(=O)OCC(=O)NC(C)C2CC3CCC2C3)cc1 (stereo not given)	i	i	nt	i	i	32µM
O=C(Cn1c(=O)nc(-c2ccccc2)c2ccccc21)NCCCc1ccccc1	i	i	i	nt	i	i
COc1ccc(S(=O)(=O)N2CCCC2C(=O)Nc2nnc(-c3cccnc3)s2)cc1 (stereo not given)	i	i	i	i	i	28µM
COc1ccc(CNC(=O)Nc2cn(CC(C)C)c(=O)c3ccccc23)cc1	i	i	i	nt	?	i
CN(CC(=O)Nc1cc(C(F)(F)F)ccc1-n1cncn1)Cc1ccccc1N1CCOCC1	i	i	nt	nt	i	i
COc1cc2c(cc1OC)C(c1ccc(-c3cc(Cl)ccc3Cl)o1)=NCC2	?	i	i	i	16µM	i
COc1cc2c(cc1OC)C(c1ccc(-c3ccccc3Cl)o1)=NCC2	i	i	i	i	nt	i
COc1cc2c(cc1OC)C(c1ccc(-c3ccc(Cl)cc3Cl)o1)=NCC2	?	i	i	i	?	i
COc1cc2c(cc1OC)C(c1ccc(-c3ccc(Cl)c(Cl)c3)o1)=NCC2	nt	i	?	i	9.2µM	i
CCOc1ccc(C(=O)N2CCCCC2CCN2CCOCC2)cc1 (stereo not given)	i	i	i	nt	i	i
CCC(C)NC(=O)c1[nH]c2cc(OC)ccc2c1Sc1ccc(C)cc1 (stereo not given)	i	i	i	nt	i	28µM
CCOCCCNC(=O)c1[nH]c2cc(OC)ccc2c1Sc1ccccc1	i	i	?	nt	26µM	i
CCOCCCNC(=O)c1cc(Sc2ccc(C)cc2)nc2ccccc12	i	i	i	i	23µM	i
CCOCCCNC(=O)c1[nH]c2cc(C)ccc2c1Sc1ccc(Cl)cc1	i	i	i	nt	i	i
Cc1ccc(NC(=O)Cn2c(=O)n(-c3ccc(C)cc3)c(=O)c3ccc(C(=O)NCc4ccccc4Cl)cc32)cc1	i	i	i	nt	?	i
COc1ccc(C(=O)C[n+]2cccc3cc(C)ccc32)cc1	i	i	i	nt	?	nt
Cc1ccc2c(ccc[n+]2CC(=O)c2ccccc2)c1	i	i	i	i	i	18µM
c1csc(CNc2nc(Oc3ccncc3)c3sccc3n2)c1	nt	i	nt	nt	nt	i
COc1ccc(-c2cn3c(C)c(C(=O)NCCN4CCOCC4)sc3n2)cc1	i	i	i	i	i	22µM
SMILES	A549 viability	Nrf2 activator	miR-21 reporter	p53 reactivation	Nrf2 block	ClpP mod
COc1cc(-c2cc(C(=O)Nc3ccccc3N3CCOCC3)c3ccccc3n2)cc(OC)c1OC	i	i	i	i	?	nt
COc1ccc(-c2cn3c(C)c(C(=O)N4CCc5ccccc5C4)sc3n2)cc1	i	i	i	i	16µM	i
Cc1c(C(=O)NCCCN2CCOCC2)sc2nc(-c3ccc(F)cc3)cn12	i	i	i	i	i	i
O=C(Nc1ccccc1N1CCOCC1)c1cc(-c2ccco2)nc2ccccc12	i	i	i	i	18µM	i
COc1ccc(-c2cc(C(=O)NCCN3CCOCC3)c3ccccc3n2)cc1	i	i	i	i	i	35µM
COc1ccc(-c2cc(C(=O)NCCN3CCOCC3)c3ccccc3n2)cc1OC	i	i	i	i	i	i
COC(=O)c1sccc1S(=O)(=O)N1CCN(c2ccccc2OC)CC1	i	i	i	nt	i	i
CC(=O)C[C@H]1c2cc(F)cc(F)c2S(=O)(=O)N1C1CCN(Cc2ccccc2)CC1	nt	nt	nt	nt	nt	i
CCOc1ccc2nc(N3CCCC(C(=O)Nc4ccc(Br)c(C)c4)C3)sc2c1 (stereo not given)	i	i	i	nt	?	i
CCCC(=O)Nc1nc2nc(-c3ccccc3)cc(-c3ccccc3)n2n1	i	i	i	i	i	13µM
C=C1C(=O)O[C@H]2C[C@H]1[C@@H](OC(C)=O)C/C(C)=C/CC/C(C)=C\CC[C@]2(C)O	?	i	nt	nt	15µM	i
C=C1C(=O)O[C@@H]2[C@H]3O[C@]3(C)CC/C=C(\C)CC[C@@H]12	i	?	nt	nt	i	i
COc1ccc(CNS(=O)(=O)c2cc3c(cc2C)n(C)c(=O)c(=O)n3C)cc1	i	i	i	nt	i	i
COc1cccc(NC(=O)/C(C#N)=C/c2c(C)n(Cc3ccccc3)c3ccccc23)c1	i	i	i	nt	12µM	i
COc1cccc(NC(=O)/C(C#N)=C\c2cn(Cc3ccc(Cl)cc3)c3ccccc23)c1	i	i	i	nt	?	i
Cc1ccc(-c2noc(CN(C3CCCCC3)S(=O)(=O)c3ccc(C)cc3)n2)cc1	i	i	i	nt	i	i
CC1=C(C(=O)Nc2cc(C)ccn2)C(c2ccc(C)cc2)C2=C(CCCC2=O)N1 (stereo not given)	i	i	i	i	i	28µM
CCn1cc(C2C(C(=O)Nc3cc(C)ccn3)=C(C)NC3=C2C(=O)CC(C)(C)C3)c(C)n1 (stereo not given)	i	i	i	i	i	10µM
CC1=C(C(=O)Nc2ccccc2)C(c2ccc3c(c2)OCO3)C2=C(CCCC2=O)N1 (stereo not given)	i	i	i	i	i	i
CCOc1ccc(NC(=O)CSc2oc(-c3ccc(F)cc3)nc2S(=O)(=O)c2ccc(C)cc2)cc1	i	i	i	nt	i[9.27 µM]	i
COc1ccccc1CNC(=O)CCCn1c(=O)c2ccccc2n(CC(=O)Nc2c(C)cc(C)cc2C)c1=O	i	i	i	nt	i	?
CCCc1nnc(NC(=O)Cc2coc3c(C)c(C)ccc23)s1	i	i	i	nt	i	i
CC(=O)c1cc(CC=C(C)C)c(O)c(CC=C(C)C)c1O	i	i	i	i	i	28µM
COc1ccc(CN(C)C(=O)C(Cc2ccccc2)NC(=O)c2ccccc2)cc1F (stereo not given)	i	i	nt	i	i	i
CCOc1ccc(CN(C)C(=O)[C@H](Cc2ccccc2)NC(=O)OCc2ccccc2)cc1OC	?	i	?	i	21µM	i
